According to US11045480B2, “Anti-huLRRC15 antibody drug conjugates and methods for their use” (AbbVie Inc., priority 2015, dated 2021):

Tests used:
[1] = system: HN5 (head and neck) xenograft; assay: HN5 xenograft tumor growth; type: in vivo, mouse; conditions: HN5, NSG mice; ADC 4.5 mg/kg IP Q4D×6; erlotinib 150 mg/kg orally daily ×10; cetuximab 3 mg/kg IP Q7D×3 (FIG. 20B)
Description: In FIG. 20B, HN5 cells (5 million) were implanted subcutaneously into NSG mice, and mice were randomized when the tumor group mean volumes reached ˜200 mm^3 and dosed with isotype mAb or ADCs at 4.5 mg/kg intraperitoneally on a Q4D×6 (one dose given every 4 days for a total of 6 doses), while erlotinib was dosed orally daily for 10 days at 150 mg/kg, and cetuximab was dosed intraperitoneally Q7D×3 (one dose given every 7 days for a total of 3 doses) at 3 mg/kg.

[2] = system: SCC-15 head and neck cancer xenograft; assay: SCC-15 xenograft tumor growth; type: in vivo, mouse; conditions: SCC-15, SCID mice; ADCs 12 mg/kg IP Q7D×6; cetuximab 3 mg/kg IP Q7D×3 (FIG. 22B)
Description: Radiation is a commonly used cytotoxic therapy in oncology. […] SCC-15 head and neck cancer cells (1 million) were implanted subcutaneously into SCID mice, and mice were randomized when the tumors reached ˜200 mm^3 and dosed with biologics at 12 mg/kg intraperitoneally on a Q4D×6 (one dose given every 4 days for a total of 6 doses), while the radiation was directed at the tumor with a single radiation dose of 15 Gy on day 0.
SCC-15 head and neck cancer cells (1 million) were implanted subcutaneously into SCID mice, and mice were randomized when the tumors reached ˜200 mm^3 and dosed with biologics at 12 mg/kg intraperitoneally on a Q7D×6 (one dose given every 7 days for a total of 6 doses), while carboplatin was dosed intraperitoneally […] at 50 mg/kg Q4D×4 (one dose given every 4 days for a total of 4 doses).

In the case of cetuximab [reference compound], the TGD [1] is reported as 59%, the TGImax [1] is reported as 73% and the “TGD, single agent” value [2] is reported as 58%. For the same substance, the “TGImax, single agent” value [2] was 66%.
